Test results taken from patent US6680379B1, “Organic anion transporter genes and proteins” (Metabasis Therapeutics, Inc., priority 1999, dated 2004).

Target: T1, hOAT2A (Homo sapiens, UniProt Q9Y694)
T1 sequence (Q9Y694 1-546 isoform Q9Y694-2): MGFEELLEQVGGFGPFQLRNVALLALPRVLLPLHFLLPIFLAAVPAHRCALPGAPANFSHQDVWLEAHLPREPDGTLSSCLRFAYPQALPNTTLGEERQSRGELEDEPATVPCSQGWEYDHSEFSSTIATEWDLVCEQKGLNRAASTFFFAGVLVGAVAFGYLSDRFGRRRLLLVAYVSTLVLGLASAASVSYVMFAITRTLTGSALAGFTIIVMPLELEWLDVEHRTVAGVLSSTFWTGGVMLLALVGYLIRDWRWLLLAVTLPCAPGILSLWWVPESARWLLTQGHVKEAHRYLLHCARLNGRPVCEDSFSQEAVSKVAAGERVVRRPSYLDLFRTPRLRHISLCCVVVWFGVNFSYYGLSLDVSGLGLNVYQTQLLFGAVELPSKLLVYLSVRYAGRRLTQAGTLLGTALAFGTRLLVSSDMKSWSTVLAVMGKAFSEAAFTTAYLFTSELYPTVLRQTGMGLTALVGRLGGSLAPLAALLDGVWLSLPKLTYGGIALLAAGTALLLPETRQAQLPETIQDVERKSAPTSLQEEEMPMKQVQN
Assay: Competition assay of 3H-PAH uptake in EcR293/OAT2A cells
Assay type: cell-based
Parameters: Isolation of Full-length Human OAT2A and OAT2B cDNA; expressed in transfected cells; host or cells: EcR293 (Invitrogen)
Settings: 500 μM competitor
Description: EcR293/OAT2A cells were assayed for transport of ^3H-PAH as in Example 7. […]. The competition assay thus identified BSP and not AKG as a preferred substrate of hOAT2A.

How did the “effect on uptake of 3H-PAH in EcR293/OAT2A cells” value turn out when α-ketoglutarate [AKG] was run?
The value was “not”.
